Biological target: Protein farnesyltransferase (Homo sapiens, UniProt P49354+P49356)
Assay: In vitro inhibitory activity to reduce the human farnesyltransferase catalyzed incorporation of [3H]FPP into recombinant Ras-CVIM
Assay type: functional
In short: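 Human FPTase, [3H]FPP incorporated into recombinant Ras-CVIM. Enzyme at 1 nM, or 10 pM for some compounds.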

## N#Cc1ccc2cc1Oc1ccc3cccc(c3c1)N1CC[C@H](NCc3cncn3C2)C1=O
  IC50: 3.5 nM
